{"sequences": {"note": "The chains behind the UniProt entries cited, without tags or fusion partners.", "UniProt P79350, whole entry": "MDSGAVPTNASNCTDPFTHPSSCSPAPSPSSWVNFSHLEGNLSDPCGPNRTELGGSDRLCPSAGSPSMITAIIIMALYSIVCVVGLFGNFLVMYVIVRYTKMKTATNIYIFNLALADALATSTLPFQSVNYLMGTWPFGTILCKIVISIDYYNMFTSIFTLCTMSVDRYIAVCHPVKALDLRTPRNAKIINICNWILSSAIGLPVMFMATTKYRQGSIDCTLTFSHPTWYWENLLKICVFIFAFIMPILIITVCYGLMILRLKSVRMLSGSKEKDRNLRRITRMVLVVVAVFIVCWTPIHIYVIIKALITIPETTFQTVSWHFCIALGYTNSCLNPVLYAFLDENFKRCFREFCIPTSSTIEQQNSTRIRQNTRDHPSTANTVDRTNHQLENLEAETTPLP"}, "source": "ChEMBL document CHEMBL1124886", "about": "“Electrophilic alpha-methylene-gamma-lactone and isothiocyanate opioid ligands related to etorphine” (1990)", "biological_target": "Mu-type opioid receptor (Bos taurus, UniProt P79350)", "test": "Inhibition of 0.5 nM [3H]- Bremazocine binding to Opioid receptor mu 1 of bovine striatum membrane", "note": "pIC50: −log10 of the molar value.", "data": [{"smiles": "COc1ccc2c3c1O[C@@H]1[C@]34CCN(CC3CC3)[C@H](C2)[C@]42C=C[C@@]1(OC)C([C@H](C)N=C=S)C2", "note": "(stereo partly specified)", "values": [{"measurement": "pIC50", "value": 6.77}]}, {"smiles": "CO[C@]12CC[C@@]3(C[C@@H]1C(C)(C)O)[C@H]1Cc4ccc(O)c5c4[C@@]3(CCN1CC1CC1)[C@H]2O5", "values": [{"measurement": "pIC50", "value": 8.85}]}, {"smiles": "COc1ccc2c3c1O[C@@H]1C34CCN(CC3CC3)C(C2)[C@]42C=C[C@@]1(OC)C([C@@H](C)N=C=S)C2", "note": "(stereo partly specified)", "values": [{"measurement": "pIC50", "value": 6.36}]}, {"smiles": "C=C1C[C@H]([C@H]2C[C@@]34C=C[C@]2(OC)[C@@H]2Oc5c(O)ccc6c5[C@@]23CCN(CC2CC2)[C@@H]4C6)OC1=O", "values": [{"measurement": "pIC50", "value": 9.00}]}, {"smiles": "CO[C@]12C=C[C@@]3(CC1[C@@H](C)N=C=S)C1Cc4ccc(O)c5c4C3(CCN1CC1CC1)[C@H]2O5", "note": "(stereo partly specified)", "values": [{"measurement": "pIC50", "value": 9.12}]}, {"smiles": "CO[C@]12C=C[C@@]3(CC1[C@H](C)N=C=S)[C@H]1Cc4ccc(O)c5c4[C@@]3(CCN1CC1CC1)[C@H]2O5", "note": "(stereo partly specified)", "values": [{"measurement": "pIC50", "value": 9.49}]}]}
